Source: patent publication US7511144B2, “Reverse hydroxamic acid derivatives” (Kaken Pharmaceutical Co., Ltd., priority 2001, dated 2009)

Amino acid sequences for entries named in this document (tags omitted). Residues count along the entry.
UniProt Q9ULZ9, 126-300 limits assumed: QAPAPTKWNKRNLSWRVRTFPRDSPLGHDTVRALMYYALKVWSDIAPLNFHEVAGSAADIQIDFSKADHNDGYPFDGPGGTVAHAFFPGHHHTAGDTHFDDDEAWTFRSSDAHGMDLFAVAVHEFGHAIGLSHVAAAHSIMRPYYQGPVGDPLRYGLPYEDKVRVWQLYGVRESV
UniProt P08254, 100-272 limits assumed: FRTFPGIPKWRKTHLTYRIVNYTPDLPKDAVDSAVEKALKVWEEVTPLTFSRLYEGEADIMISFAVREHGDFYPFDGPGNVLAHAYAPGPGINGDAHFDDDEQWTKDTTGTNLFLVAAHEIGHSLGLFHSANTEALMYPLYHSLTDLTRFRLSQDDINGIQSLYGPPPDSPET
UniProt P03956, 100-469 limits assumed: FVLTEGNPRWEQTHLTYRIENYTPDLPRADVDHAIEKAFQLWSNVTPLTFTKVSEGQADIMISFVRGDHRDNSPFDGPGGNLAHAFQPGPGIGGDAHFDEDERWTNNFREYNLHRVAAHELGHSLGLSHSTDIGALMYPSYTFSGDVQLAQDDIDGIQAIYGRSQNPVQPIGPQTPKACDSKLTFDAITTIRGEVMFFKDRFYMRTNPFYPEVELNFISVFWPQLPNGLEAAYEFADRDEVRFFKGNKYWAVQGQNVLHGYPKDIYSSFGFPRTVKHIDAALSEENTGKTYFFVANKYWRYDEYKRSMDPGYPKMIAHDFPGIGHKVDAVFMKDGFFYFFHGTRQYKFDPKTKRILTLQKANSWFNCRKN
UniProt P08253, 110-660 limits assumed: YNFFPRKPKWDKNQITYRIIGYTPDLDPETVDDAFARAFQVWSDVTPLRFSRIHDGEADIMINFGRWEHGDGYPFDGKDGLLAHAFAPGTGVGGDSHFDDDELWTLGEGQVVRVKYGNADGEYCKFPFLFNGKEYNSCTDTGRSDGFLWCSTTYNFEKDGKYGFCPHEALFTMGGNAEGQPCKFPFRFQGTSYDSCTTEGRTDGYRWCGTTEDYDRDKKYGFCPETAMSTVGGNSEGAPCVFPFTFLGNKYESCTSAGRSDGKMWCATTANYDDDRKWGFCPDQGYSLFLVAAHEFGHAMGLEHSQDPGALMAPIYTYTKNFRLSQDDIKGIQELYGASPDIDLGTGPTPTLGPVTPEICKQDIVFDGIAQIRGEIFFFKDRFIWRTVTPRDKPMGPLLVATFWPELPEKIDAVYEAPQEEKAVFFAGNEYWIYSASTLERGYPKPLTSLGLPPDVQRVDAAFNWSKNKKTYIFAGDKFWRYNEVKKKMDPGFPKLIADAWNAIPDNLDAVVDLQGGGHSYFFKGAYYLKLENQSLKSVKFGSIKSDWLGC
UniProt P78536, 215-824 limits assumed: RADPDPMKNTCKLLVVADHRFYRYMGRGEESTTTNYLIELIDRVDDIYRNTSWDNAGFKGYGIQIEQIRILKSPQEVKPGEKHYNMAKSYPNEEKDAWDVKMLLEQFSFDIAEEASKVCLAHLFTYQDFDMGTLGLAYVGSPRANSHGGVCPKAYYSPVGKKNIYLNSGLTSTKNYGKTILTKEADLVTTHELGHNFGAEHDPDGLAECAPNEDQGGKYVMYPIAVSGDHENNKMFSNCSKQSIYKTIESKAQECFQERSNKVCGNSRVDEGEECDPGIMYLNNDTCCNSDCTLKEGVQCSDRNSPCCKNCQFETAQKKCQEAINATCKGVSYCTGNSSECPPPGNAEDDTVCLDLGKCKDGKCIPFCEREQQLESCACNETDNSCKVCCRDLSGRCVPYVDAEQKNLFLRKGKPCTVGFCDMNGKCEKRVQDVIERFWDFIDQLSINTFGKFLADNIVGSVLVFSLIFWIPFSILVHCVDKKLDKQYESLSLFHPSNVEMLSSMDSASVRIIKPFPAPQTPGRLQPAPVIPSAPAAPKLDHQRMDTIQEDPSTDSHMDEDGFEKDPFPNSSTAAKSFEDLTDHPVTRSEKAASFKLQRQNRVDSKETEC
UniProt P14780, 107-707 limits assumed: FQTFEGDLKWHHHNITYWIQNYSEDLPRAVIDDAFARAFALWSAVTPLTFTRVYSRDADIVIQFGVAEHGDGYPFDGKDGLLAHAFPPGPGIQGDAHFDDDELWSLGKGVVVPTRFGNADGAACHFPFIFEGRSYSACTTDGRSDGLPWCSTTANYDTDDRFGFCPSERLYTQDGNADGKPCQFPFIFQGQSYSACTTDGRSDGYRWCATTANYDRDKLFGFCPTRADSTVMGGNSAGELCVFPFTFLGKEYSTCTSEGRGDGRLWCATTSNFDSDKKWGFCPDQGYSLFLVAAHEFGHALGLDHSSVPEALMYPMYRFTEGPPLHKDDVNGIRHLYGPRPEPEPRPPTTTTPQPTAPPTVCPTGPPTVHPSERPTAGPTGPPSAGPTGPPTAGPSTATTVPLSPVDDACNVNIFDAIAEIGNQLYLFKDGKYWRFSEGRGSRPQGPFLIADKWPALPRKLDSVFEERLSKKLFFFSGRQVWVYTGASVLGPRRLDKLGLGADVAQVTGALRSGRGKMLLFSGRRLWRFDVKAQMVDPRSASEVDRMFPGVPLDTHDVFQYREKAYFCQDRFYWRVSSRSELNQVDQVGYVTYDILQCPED
UniProt P22894, 101-467 limits assumed: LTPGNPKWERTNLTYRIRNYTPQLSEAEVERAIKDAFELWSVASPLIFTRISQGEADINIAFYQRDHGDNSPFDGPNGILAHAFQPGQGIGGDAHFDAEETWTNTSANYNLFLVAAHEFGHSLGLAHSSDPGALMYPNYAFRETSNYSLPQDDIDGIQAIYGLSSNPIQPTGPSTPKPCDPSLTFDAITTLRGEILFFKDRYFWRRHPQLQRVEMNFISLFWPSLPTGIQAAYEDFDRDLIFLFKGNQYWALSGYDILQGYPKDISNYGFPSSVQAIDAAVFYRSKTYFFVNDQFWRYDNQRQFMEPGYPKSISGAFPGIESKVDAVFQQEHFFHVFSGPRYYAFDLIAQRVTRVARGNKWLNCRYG

Key:
Human MMP13 = Human MMP13 (Homo sapiens, UniProt P45452); assay: MMP13 inhibition experiment; conditions: read-out: IC50 value MMP-13; concentration required for 50% inhibition of enzyme activity
Human MMP17 = Human MMP17 (Homo sapiens, UniProt Q9ULZ9); assay: MMP17 inhibition test; conditions: read-out: IC50 value MMP-17; concentration required for 50% inhibition of enzyme activity
Human MMP3 = Human MMP3 (Homo sapiens, UniProt P08254); assay: MMP3 inhibition experiment; conditions: read-out: IC50 value MMP-3; concentration required for 50% inhibition of enzyme activity
Human MMP1 = Human MMP1 (Homo sapiens, UniProt P03956); assay: MMP1 inhibition experiment; conditions: read-out: IC50 value MMP-1; concentration required for 50% inhibition of enzyme activity
Human MMP2 = Human MMP2 (Homo sapiens, UniProt P08253); assay: MMP2 inhibition experiment; conditions: read-out: IC50 value MMP-2; concentration required for 50% inhibition of enzyme activity
TACE = TACE (Homo sapiens, UniProt P78536); assay: TACE inhibition experiment (in vitro); type: biochemical; conditions: read-out: IC50 value TACE; concentration required for 50% inhibition of enzyme activity
Human MMP14 = Human MMP14 (Homo sapiens, UniProt P50281); assay: MMP14 inhibition experiment; conditions: read-out: IC50 value MMP-14; concentration required for 50% inhibition of enzyme activity
Human MMP9 = Human MMP9 (Homo sapiens, UniProt P14780); assay: MMP9 inhibition experiment; conditions: read-out: IC50 value MMP-9; concentration required for 50% inhibition of enzyme activity
Human MMP8 = Human MMP8 (Homo sapiens, UniProt P22894); assay: MMP8 inhibition experiment; conditions: read-out: IC50 value MMP-8; concentration required for 50% inhibition of enzyme activity

| Compound | IC50 (Human MMP13) [µM] | IC50 (Human MMP17) [µM] | IC50 (Human MMP3) [µM] | IC50 (Human MMP1) [µM] | IC50 (Human MMP2) [µM] | IC50 (TACE) [µM] | IC50 (Human MMP14) [µM] | IC50 (Human MMP9) [µM] | IC50 (Human MMP8) [µM] |
| --- | --- | --- | --- | --- | --- | --- | --- | --- | --- |
| COc1cc(COc2ccc(S(=O)(=O)CC(C=C3CCC(=NO)CC3)N(O)C=O)cc2)cc(C)n1 (centres unmarked) | 7 | 21 | 33 | > 100 | 9 | 0.07 | > 100 | 90 |  |
| COc1cc(COc2ccc(S(=O)(=O)CC(CC3CCC(=NO)CC3)N(O)C=O)cc2)cc(C)n1 (centres unmarked) | 3 | 4 | 8 | > 100 | 3.3 | 0.12 | 70 | 50 |  |
| COc1cc(COc2ccc(S(=O)(=O)CC(CC3CCC4(CC3)OCCO4)N(O)C=O)cc2)cc(C)n1 (centres unmarked) | 7 | 13 | 6 | > 100 | 6 | 0.8 | 70 | 43 |  |
| Cc1cc(COc2ccc(S(=O)(=O)CC(CC3CCOCC3)N(O)C=O)cc2)c2ccccc2n1 (centres unmarked) [Example I-29] | 4 | 0.35 | 1.5 | > 100 | 5 | 0.02 | > 100 | 90 | 30 |
| Cc1cc(COc2ccc(S(=O)(=O)CC(N(O)C=O)C3(C)CCN(CC(C)C)CC3)cc2)c2ccccc2n1 (centres unmarked) |  |  |  |  |  | 0.048 |  |  |  |
| COc1cc(COc2ccc(S(=O)(=O)CC(C=C3CCC(=O)CC3)N(O)C=O)cc2)cc(C)n1 (centres unmarked) | 15 | 40 | 40 | > 100 | 25 | 0.23 | > 100 | > 100 |  |
| COc1cc(COc2ccc(S(=O)(=O)CC(C=C3CCOCC3)N(O)C=O)cc2)cc(C)n1 (centres unmarked) | 8 | 21 | 43 | > 100 | 12 | 0.1 | > 100 | > 100 |  |
| COc1cc(COc2ccc(S(=O)(=O)CC(C=C3CCC4(CC3)OCCO4)N(O)C=O)cc2)cc(C)n1 (centres unmarked) | 15 | 35 | 23 | > 100 | 21 | 0.31 | > 100 | 60 |  |
| COc1cc(COc2ccc(S(=O)(=O)CC(CC3CCC(OC)(OC)CC3)N(O)C=O)cc2)cc(C)n1 (centres unmarked) | 2 | 5 | 2.1 | > 100 | 1.8 | 0.23 | 70 | 40 |  |

Now those with a lower IC50 (TACE), led by results:

| IC50 (Human MMP13) [µM] | IC50 (Human MMP17) [µM] | IC50 (Human MMP3) [µM] | IC50 (Human MMP1) [µM] | IC50 (Human MMP2) [µM] | IC50 (TACE) [µM] | IC50 (Human MMP14) [µM] | IC50 (Human MMP9) [µM] | IC50 (Human MMP8) [µM] | Compound |
| --- | --- | --- | --- | --- | --- | --- | --- | --- | --- |
| 1.8 | 0.035 | 0.06 | 53 | 1 | 0.013 | 22 | 25 | 2.6 | Cc1cc(COc2ccc(S(=O)(=O)CC(CN3CCN(C(=O)OC(C)(C)C)CC3)N(O)C=O)cc2)c2ccccc2n1 (centres unmarked) |
| 42 | 4.2 | 8 | 82 | > 100 | 0.0081 | 62 | > 100 | > 100 | Cc1ccnc(C(C)(CS(=O)(=O)c2ccc(OCc3cc(C)nc4ccccc34)cc2)N(O)C=O)c1 (centres unmarked) |
| > 100 | 6.6 | 17 | > 100 | 50 | 0.0063 | > 100 | > 100 |  | Cc1cc(COc2ccc(S(=O)(=O)CC(/C=C3/CCN(CC(C)C)CC3C)N(O)C=O)cc2)c2ccccc2n1 (centres unmarked) |
| > 100 | 10 | 31 | > 100 | 73 | 0.0061 | > 100 | > 100 | > 100 | Cc1cc(COc2ccc(S(=O)(=O)CC(/C=C3\CCN(CC(C)C)CC3C)N(O)C=O)cc2)c2ccccc2n1 (centres unmarked) |
| 16 | 3 | 3.1 | > 100 | 32 | 0.006 | 50 | > 100 | 40 | Cc1cc(COc2ccc(S(=O)(=O)CC(CCC=C3CCOCC3)N(O)C=O)cc2)c2ccccc2n1 (centres unmarked) |
| 7 |  |  | 42 | 7 | 0.003 | 30 |  | 55 | Cc1cc(COc2ccc(S(=O)(=O)CC(C=C3CCN(C(=O)C(C)(C)C)CC3)N(O)C=O)cc2)c2ccccc2n1 (centres unmarked) [Example I-25, N-{1-[1-(2,2-Dimethylpropionyl)piperidin-4-ylidenemethyl]-2-[4-(2-methylquinolin-4-ylmethoxy)benzenesulfonyl]ethyl}-N-hyroxyformamide] |
| 38 | 1.2 | 1.5 | 60 | 32 | 0.002 | 74 | 73 | 73 | CCCS(=O)(=O)N1CCC(=CC(CS(=O)(=O)c2ccc(OCc3cc(C)nc4ccccc34)cc2)N(O)C=O)C(C)C1 (centres unmarked) |
